Properties, as collected for the OPERA models

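The numbers are reported measurements, compiled and curated for the OPERA QSAR suite. A listed value is a point estimate from one report or more. Method, purity and exact conditions of the single measurements are not given. A value may pool stereoisomers or salt forms, and the file does not say which form was measured. Some entries may be limits or estimates that an upstream database listed as plain numbers.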

The melting point is given in degrees Celsius.
logP is the log10 of the octanol-water partition coefficient; higher is more lipophilic.
Water solubility is log10 of mol/L, nominally at 25 °C; higher is more soluble.
Vapor pressures (log10 mmHg) refer to near room temperature, 15 to 30 °C; higher is more volatile.
The Henry's law constant is on a log10 scale in atm·m3/mol (set defined at 25 °C); higher favours air over water.
The unbound fraction in human plasma runs from 0 (all bound) to 1 (all free).
Clint is human hepatic intrinsic clearance in µL/min per million cells; 0 means that no clearance was seen.
Cells with "–" have no entry in this list.

The entry for COc1cc(OC)nc(NC(=O)[N-]S(=O)(=O)c2ncccc2OCC(F)(F)F)n1.[Na+] [Trifloxysulfuron-sodium] lists log Kow 0.023 and water solubility -1.25 (log10 mol/L) and vapor pressure -8.068 (log10 mmHg) and fu 0.00325 and hepatic Clint 0 µL/min/10^6 cells.
The entry for COc1cc(OC)nc(Sc2cccc(Cl)c2C(=O)[O-])n1.[Na+] [Pyrithiobac-sodium] lists water solubility 0.32 (log10 mol/L) and fu 0.03087 and hepatic Clint 0 µL/min/10^6 cells.
The entry for Oc1cc(Cl)ccc1Oc1ccc(Cl)cc1Cl [Triclosan] lists vapor pressure -5.28 (log10 mmHg) and fu 0.00339.
The entry for NC(=O)CF [2-Fluoroacetamide] lists vapor pressure -0.004 (log10 mmHg) and log Henry constant -7.652 (log10 atm·m3/mol).
The entry for CC(C)OC(=O)OOC(=O)OC(C)C [Diisopropyl peroxydicarbonate] lists log Kow 2.73 and water solubility -3.83 (log10 mol/L).
The entry for CCCC1(CC)C(=O)NC(=O)NC1=O [5-Ethyl-5-propylpyrimidine-2,4,6(1H,3H,5H)-trione] lists MP 144 °C and water solubility -1.491 (log10 mol/L).
The entry for CN(C)C(=S)[S-].[Na+] [Sodium dimethyldithiocarbamate] lists log Kow -2.305 and vapor pressure -5.859 (log10 mmHg).
The entry for CCC(C)(C)OOC(=O)C(C)(C)C lists MP -33 °C and log Kow 3.3 and water solubility -2.572 (log10 mol/L).
The entry for Fc1ccc(C2(Cn3cncn3)OC2c2ccccc2Cl)cc1 (configuration not stated) [Epoxiconazole] lists fu 0.0575 and hepatic Clint 0 µL/min/10^6 cells.
The entry for CC(C)(C)C(=O)O[C@H]1CC[C@@]2(C)C(=C[C@H](O)[C@H]3[C@@H]4[C@@H]5C[C@@H]5C(=O)[C@@]4(C)CC[C@@H]32)C1 lists log Kow 4.17 and water solubility -5.155 (log10 mol/L).
The entry for COS(=O)(=O)[O-].Cn1c(-c2ccccc2)cc(-c2ccccc2)[n+]1C [Difenzoquat metilsulfate] lists MP 157 °C and log Kow 0.65 and water solubility 0.326 (log10 mol/L).
The entry for C#CCOS(=O)OC1CCCCC1Oc1ccc(C(C)(C)C)cc1 (configuration not stated) [Propargite] lists fu 0.0133 and hepatic Clint 24 µL/min/10^6 cells.
The entry for CNC(=O)ON=C(C)SC [Methomyl] lists fu 0.716 and hepatic Clint 2.05 µL/min/10^6 cells.
The entry for O=C(O)c1c(Cl)ccc2cc(Cl)cnc12 lists water solubility -6.57 (log10 mol/L) and log Henry constant -6.435 (log10 atm·m3/mol) and hepatic Clint 0 µL/min/10^6 cells.
The entry for C[C@H](Oc1ccc(Oc2nc3ccc(Cl)cc3o2)cc1)C(=O)N(C)c1ccccc1F [Metamifop] lists water solubility -5.81 (log10 mol/L) and vapor pressure -5.947 (log10 mmHg) and log Henry constant -6.203 (log10 atm·m3/mol).
The entry for CC(C)=CC1C(C(=O)OCc2ccc(C)cc2C)C1(C)C (configuration not stated) [Dimethrin] lists water solubility -6.9 (log10 mol/L) and vapor pressure -4.764 (log10 mmHg) and log Henry constant -4.119 (log10 atm·m3/mol).
The entry for Clc1ccc(-c2c(Cl)ccc(Cl)c2Cl)cc1 lists log Kow 5.95 and vapor pressure -3.525 (log10 mmHg).
The entry for CCCC[N+](CCCC)(CCCC)CCCC.[I-] [Tetrabutylammonium iodide] lists log Kow 0.869 and water solubility -2.056 (log10 mol/L).
The entry for O=c1oc2ccccc2c(O)c1C1CC(c2ccc(OCc3ccc(C(F)(F)F)cc3)cc2)Cc2ccccc21 (configuration not stated) [Flocoumafen] lists log Kow 6.12 and water solubility -5.719 (log10 mol/L) and vapor pressure -12 (log10 mmHg).

A selection of 2 entries from above:

compound	name	MP (°C)	log Kow	water solubility (log10 mol/L)	vapor pressure (log10 mmHg)	log Henry constant (log10 atm·m3/mol)	fu	hepatic Clint (µL/min/10^6 cells)
O=c1oc2ccccc2c(O)c1C1CC(c2ccc(OCc3ccc(C(F)(F)F)cc3)cc2)Cc2ccccc21 (configuration not stated)	Flocoumafen	–	6.12	-5.719	-12	–	–	–
C[C@H](Oc1ccc(Oc2nc3ccc(Cl)cc3o2)cc1)C(=O)N(C)c1ccccc1F	Metamifop	–	–	-5.81	-5.947	-6.203	–	–

Data: OPERA 2.9 data sets, kmansouri/OPERA on GitHub.